Two compounds from patent publication US6004967A, “Psoriasis treatment with quinazoline compounds” (priority 1997, dated 1999) can be followed below.

The chains behind the UniProt entries cited, without tags or fusion partners. Residues count along the entry.
UniProt P00533, 25-1210: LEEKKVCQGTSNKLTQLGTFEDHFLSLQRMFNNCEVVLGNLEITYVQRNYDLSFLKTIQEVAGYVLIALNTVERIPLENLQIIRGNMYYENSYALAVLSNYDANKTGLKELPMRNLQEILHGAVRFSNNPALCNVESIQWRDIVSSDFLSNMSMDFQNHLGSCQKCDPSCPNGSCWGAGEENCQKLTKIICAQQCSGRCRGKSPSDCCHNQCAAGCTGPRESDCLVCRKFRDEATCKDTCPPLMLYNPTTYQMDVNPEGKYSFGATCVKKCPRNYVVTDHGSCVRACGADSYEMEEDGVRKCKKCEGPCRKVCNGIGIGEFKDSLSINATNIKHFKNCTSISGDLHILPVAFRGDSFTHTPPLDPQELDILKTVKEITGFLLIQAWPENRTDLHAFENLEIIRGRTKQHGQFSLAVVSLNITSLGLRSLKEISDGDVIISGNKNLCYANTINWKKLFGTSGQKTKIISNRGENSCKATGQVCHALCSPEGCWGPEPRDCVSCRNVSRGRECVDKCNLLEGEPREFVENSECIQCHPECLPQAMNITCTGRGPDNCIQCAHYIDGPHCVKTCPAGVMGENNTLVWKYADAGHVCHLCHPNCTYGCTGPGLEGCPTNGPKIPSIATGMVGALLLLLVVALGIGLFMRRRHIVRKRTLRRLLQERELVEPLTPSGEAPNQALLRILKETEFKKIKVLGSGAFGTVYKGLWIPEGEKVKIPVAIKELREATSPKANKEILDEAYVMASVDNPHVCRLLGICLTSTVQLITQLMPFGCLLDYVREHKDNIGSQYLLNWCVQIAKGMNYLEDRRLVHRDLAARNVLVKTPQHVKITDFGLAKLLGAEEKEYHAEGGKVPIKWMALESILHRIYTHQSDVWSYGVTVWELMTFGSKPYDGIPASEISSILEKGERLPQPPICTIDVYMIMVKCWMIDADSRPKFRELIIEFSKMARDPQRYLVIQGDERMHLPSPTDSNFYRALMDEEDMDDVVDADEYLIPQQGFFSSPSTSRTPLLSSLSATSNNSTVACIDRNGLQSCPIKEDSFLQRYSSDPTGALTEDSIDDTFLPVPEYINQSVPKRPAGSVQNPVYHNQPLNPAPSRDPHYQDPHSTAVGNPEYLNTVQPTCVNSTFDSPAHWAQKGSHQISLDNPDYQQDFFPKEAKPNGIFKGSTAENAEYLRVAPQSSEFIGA

Structures are written as SMILES.

Series [1] in a line: in vivo. To be noted: mouse, ip.
In series [2] the target is T1, human EGF-R (Homo sapiens, UniProt P00533).
T1 construct: expressed in transfected cells; host or cells: NIH3T3 clone C7 (mouse fibroblasts)
The series can be described thus: EGF-R whole cell kinase assay (EGF-R-3T3 ELISA). The format is cell-based. On the technique in general: In an ELISA, binding on a coated surface is turned into a signal by an enzyme label.

The LD50 is the dose at which mortality reaches 50%. A high value points to lower toxicity. With `COc1cc2ncnc(Nc3cccc(Br)c3)c2cc1OC` [A1, 4-(3-Bromophenylamino)-6,7-dimethoxyquinazoline], the 50% lethal dose (LD50) at 168 h in series [1] was roughly 300 mg/kg. The compound further came in with an LD10 in series [1] (10080 min) of 75 mg/kg. In general, IC50 refers to the concentration that gives 50% inhibition. A low value points to inhibition by little substance. In the case of `COc1cc2ncnc(Nc3cccc(Cl)c3)c2cc1OC` [A2, 4-(3-Chlorophenylamino)-6,7-dimethoxyquinazoline], the 50% inhibitory concentration (IC50) in series [2] is less than 15 nM.
